The target of this assay is Raf-1 (Homo sapiens (Human), UniProt P04049). The experiment in a line: In vitro kinase inhibition assay (ADP-Glo), Raf-1. As to conditions: 10 nM enzyme, 1 μM MEK1, 10 μM ATP, 22° C., 2 hours. Format: biochemical. (ADP-Glo first removes unused ATP, then detects ADP through luciferase.)

For `CC(C)(C)OC(=O)c1cc(O[C@H]2CC[C@H](NC(=O)Nc3ccc(Cl)c(C(F)(F)F)c3)CC2)ccn1` [Compound 2280, trans-4-{4-[3-(4-Chloro-3-trifluoromethyl-phenyl)-ureido]-cyclohexyloxy}-pyridine-2-carboxylic acid tert-butyl ester], the IC50 was determined as 550 ± 50 nM.

A word on the IC50: it is the concentration at which inhibition is half-maximal.

(Values after patent publication US9029401B2 (The Regents of the University of California, priority 2011, dated 2015).)
